Values quoted from earlier work, collected in paper PMC7000758 (Nature Communications, 2020).

Biological target: VEGF receptors
Conditions: cited from earlier work

**Q.** Which results are given for `CCN(CC)CCNC(=O)c1c(C)[nH]c(/C=C2\C(=O)Nc3ccc(F)cc32)c1C` [sunitinib]?
**A.** Ki (read-out: reported level required to inhibit VEGF receptors, called Ki for VEGFR2 and VEGFR1): 8 nM; reported level required to inhibit VEGF receptors (tissue equivalent of 8 nM): ~ 4 ng/g
